According to ChEMBL document CHEMBL1123068, “2-Fluoroformycin and 2-aminoformycin. Synthesis and biological activity” (J Med Chem, 1985):

What was measured:
[1] = substrate: Nc1ncnc2c([C@@H]3O[C@H](CO)[C@@H](O)[C@H]3O)[nH]nc12
[2] = substrate: Nc1nc(F)nc2c([C@@H]3O[C@H](CO)[C@@H](O)[C@H]3O)n[nH]c12
[3] = substrate: Nc1nc(N)c2[nH]nc([C@@H]3O[C@H](CO)[C@@H](O)[C@H]3O)c2n1

B1: Adenosine deaminase (Bos taurus), P56658 (protein)
chain: MAQTPAFNKPKVELHVHLDGAIKPETILYYGRKRGIALPADTPEELQNIIGMDKPLSLPEFLAKFDYYMPAIAGCREAVKRIAYEFVEMKAKDGVVYVEVRYSPHLLANSKVEPIPWNQAEGDLTPDEVVSLVNQGLQEGERDFGVKVRSILCCMRHQPSWSSEVVELCKKYREQTVVAIDLAGDETIEGSSLFPGHVKAYAEAVKSGVHRTVHAGEVGSANVVKEAVDTLKTERLGHGYHTLEDATLYNRLRQENMHFEVCPWSSYLTGAWKPDTEHPVVRFKNDQVNYSLNTDDPLIFKSTLDTDYQMTKNEMGFTEEEFKRLNINAAKSSFLPEDEKKELLDLLYKAYGMPSPASAEQCL
B1 showed a Km [1] of 500 µM, a Km [2] of 1000 µM and a Km [3] of 290 µM.
